Data taken from publication PMC9917735, “Optimization of the Hemolysis Assay for the Assessment of Cytotoxicity” (International Journal of Molecular Sciences, 2023).

System: washed human erythrocytes
Experiment: Hemolysis assay, washed human erythrocytes
Details: 1% washed human erythrocytes, OD 570 nm, peptides 100 μM, 60 min 37 °C, pos. 10% Triton X-100, neg. PBS; 3 x 2 replicates

O [dH2O, distilled water]
Calculated hemolysis ratio: 71.2 ± 10.3%
